System: Nav1.8
Test: Ion channel panel, Nav1.8
Type: cell-based
Design: key: “+” means tested and produced effect; “–“ means tested but no effect
Details: S12A at 5 μM; Xenopus oocytes, n ≥ 3
Experimental: For the expression of NaV channels (hNav1.1, rNaV1.2, rNaV1.3, rNaV1.4, hNaV1.5, hNaV1.6, hNav1.7, and the insect channel BgNaV1) in Xenopus laevis oocytes, the linearized plasmids were transcribed using the T7 or SP6 mMESSAGE-mMACHINE transcription kit (Ambion, Carlsbad, CA, USA). The harvesting of stage V and VI oocytes from an anaesthetized female X. laevis frog was described previously. , Oocytes were injected with 50 nL of cRNA at a concentration of 1 ng/nL using a microinjector (Drummond Scientific, Broomall, PA, USA). The oocytes were incubated in a solution containing 96 mM NaCl, 2 mM KCl, 1.8 mM CaCl2, 2 mM MgCl2, and 5 mM HEPES (pH 7.4), supplemented with 50 mg/L gentamycin sulfate. […] Whole-cell currents from oocytes were recorded 1–4 days after injection. […]
To assess the concentration–response relationships, data were fitted with the Hill equation: y = 100/[1 + (EC50/[toxin])^ h ], where y is the amplitude of the toxin-induced effect (y = I 30 ms/I peak where I 30 ms is the current value at 30 ms in the presence of toxin and I peak is the peak current amplitude in control conditions), EC50 is the toxin concentration at half-maximal efficacy, [toxin] is the toxin concentration, and h is the Hill coefficient. […] ASIC1a currents were measured in ND96 solutions at a pH of 7.4 and 4.5, at a holding potential of −70 mV during 400 s, and the data were filtered at 20 Hz. […]

CC[C@H](C)[C@@H]1NC(=O)[C@@H](NC(=O)CN)CSSC[C@@H]2NC(=O)[C@@H]3CSSC[C@@H](C(=O)N[C@@H](CC(N)=O)C(=O)N4C[C@H](O)C[C@H]4C(=O)N4C[C@H](O)C[C@H]4C(=O)N[C@@H](CC(N)=O)C(=O)N[C@@H](CCC(N)=O)C(=O)O)NC(=O)[C@H](CCCCN)NC(=O)[C@H](Cc4ccccc4)NC(=O)[C@H](CC(N)=O)NC(=O)[C@H](Cc4c[nH]c5ccccc45)NC(=O)CNC(=O)[C@H](CSSC[C@H](NC(=O)[C@H](Cc4ccccc4)NC(=O)[C@H](CO)NC(=O)CNC(=O)[C@H]([C@@H](C)O)NC(=O)[C@H](C)NC1=O)C(=O)N[C@@H]([C@@H](C)O)C(=O)N[C@@H](CC(C)C)C(=O)N[C@@H](C)C(=O)N[C@@H](CCCCN)C(=O)NCC(=O)N3)NC(=O)[C@H](CC(N)=O)NC(=O)[C@H](CCCCN)NC(=O)[C@H]([C@@H](C)O)NC2=O [Peptide S12A]
effect on Nav1.8: –

Source: PMC12836348, “Alanine Mutagenesis Identifies Specific Amino Acids of Nemertide Alpha‑1 Activity and Its Binding to Target Receptors” (Journal of Natural Products, 2025)
